Earlier results as cited in patent US12357569B2, “Infusing drug solution directly into brain fluid” (Biogen MA Inc., priority 2016, dated 2025).

Details: administered intravenously; CSF vs plasma

trastuzumab
cerebrospinal fluid (CSF) level lower than plasma levels: 300 fold
